## Yeast mating assay 1: variants of the scFv Ab-14

Source: Engelhart et al. 2022 (doi:10.1038/s41597-022-01779-4), MIT Lincoln Laboratory and A-Alpha Bio; data file from the FLAb repository.

Target peptide (SARS-CoV-2 spike, HR2 region): PDVDLGDISGINAS

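The parent was found by panning a naive human phage display library on the peptide. Variants in AAYL50 differ from the parent at up to three CDR positions; double and triple changes were sampled at random. AlphaSeq pools MATa yeast showing the antibodies with MATalpha yeast showing the peptide. After mating in shaken culture at 30 °C for 16 h, diploids were selected and their barcode pairs sequenced. Read counts were normalised to the haploid input and turned into Kd by a linear fit to BCL2-family pairs of known affinity, for each replicate. The assay was run in three technical replicates.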

Parent scFv Ab-14: VH joined to VL by a 15-residue (Gly4Ser)3 linker. Changes lie in the light chain CDRs alone.
VH: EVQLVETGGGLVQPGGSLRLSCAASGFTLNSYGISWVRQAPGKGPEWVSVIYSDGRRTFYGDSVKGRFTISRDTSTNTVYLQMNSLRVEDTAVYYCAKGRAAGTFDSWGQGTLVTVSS
VL: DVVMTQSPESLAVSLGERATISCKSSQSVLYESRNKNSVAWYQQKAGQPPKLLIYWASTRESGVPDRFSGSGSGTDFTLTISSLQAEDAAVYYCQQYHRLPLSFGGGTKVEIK

Positions count from residue 1 of the parent VL; K24E puts E in place of K.
Scale: log10 of Kd in nM, estimated from mating counts; low values are strong binders.
A mean of the replicates is given; it leaves out those without a signal.
"nd" marks a missing value. The strain was present, yet no cells mated with the target were sequenced in that replicate, which points to weak or no binding.
Three control strains display no target. For library AAYL50, 18% of the pairings with them gave a signal, with a median of 4.19 and one signal in twenty below 2.99, so weak values seen in few replicates may be background. Also given: how often the same scFv was detected with the empty control strains, with their mean in brackets.

changes | log10 Kd, replicates | mean, log10 nM | control signals
K24E/R99T/L102A | nd nd nd | nd | 2/9 (3.43)
S25D/S38Y/S103F | nd 3.10 5.42 | 4.26 | 0/9
K36S/E61S/P101E | nd nd 4.24 | 4.24 | 0/9
S33C/R60Y/L102D | 4.24 nd nd | 4.24 | 0/9
Y31Q/K36C/Y97M | 0.51 0.68 0.69 | 0.63 | 0/9
R34D/N37K/P101C | nd 1.52 nd | 1.52 | 0/9
S33L | 3.79 2.12 2.31 | 2.74 | 2/9 (3.92)
E32W/K36F/R99K | 2.12 2.08 2.69 | 2.30 | 0/9
S25C/L102T/S103L | 2.46 2.45 2.56 | 2.49 | 3/9 (4.39)
W56K/T59R/H98Y | 0.44 0.80 0.66 | 0.63 | 2/9 (3.59)
S38D/W56A/A57G | -0.28 0.12 -0.14 | -0.10 | 5/9 (4.94)
R60S/E61W/Q96H | nd 3.26 4.01 | 3.64 | 2/9 (4.78)
K24E/R99P | nd nd nd | nd | 3/9 (3.62)
S62W/L102E/S103I | 3.58 2.81 nd | 3.20 | 1/9 (3.55)
V29T/A40S | 0.65 0.82 0.62 | 0.70 | 0/9
S25E/S28Y/Y97M | 6.15 nd 5.78 | 5.97 | 2/9 (4.41)
S28T/N37C/E61Y | 2.84 2.22 2.22 | 2.43 | 1/9 (3.84)
N37A/A57M/Y97N | 3.29 nd 0.99 | 2.14 | 0/9
Q27P/L30R/R99S | nd 4.89 nd | 4.89 | 1/9 (3.35)
S25R/S62N | 3.31 2.76 3.08 | 3.05 | 2/9 (3.98)
V29L/E32C/V39G | nd 3.95 5.19 | 4.57 | 3/9 (4.40)
N35G/S38W/E61D | nd nd nd | nd | 1/9 (4.32)
V29F/V39A/S103V | 1.53 1.29 1.65 | 1.49 | 0/9
L30Y/T59N/L102A | 1.31 1.45 1.33 | 1.36 | 5/9 (4.75)
S28W/L30W/V39T | nd nd nd | nd | 1/9 (3.12)
S38W/S58V/L100T | nd nd nd | nd | 0/9
S25P/Y31R/L102M | nd nd nd | nd | 1/9 (4.06)
Q27S/R60F/S62E | 3.96 nd nd | 3.96 | 0/9
N37L/A40F/S103Q | nd nd nd | nd | 2/9 (3.08)
V29P/S33A/L102A | 4.47 3.99 4.21 | 4.22 | 3/9 (4.56)
Y31Q/H98Q/L102V | 2.00 2.28 2.19 | 2.16 | 1/9 (3.75)
N37Q/H98I/L102E | 2.06 2.17 1.86 | 2.03 | 3/9 (4.43)
Y31H/V39Y | 4.14 4.06 3.58 | 3.92 | 4/9 (4.78)
S25R/V39M/T59F | nd 4.47 3.81 | 4.14 | 2/9 (3.44)
S26V/E32M/E61N | nd 1.84 1.95 | 1.89 | 0/9
Y31V/V39C | nd 2.44 3.20 | 2.82 | 2/9 (4.92)
S62Y/P101W/S103K | nd nd nd | nd | 1/9 (4.17)
S25Y/N35E/Q95H | 1.96 1.39 1.54 | 1.63 | 1/9 (4.04)
S28Y/S33G/A57I | nd nd nd | nd | 1/9 (3.73)
K36Y/T59S/H98P | 3.47 2.71 nd | 3.09 | 0/9
S38G/R60Y | nd nd nd | nd | 0/9
S28G/K36C/A57P | nd 4.62 3.63 | 4.13 | 1/9 (3.41)
R34V/N37Y/S38V | nd nd nd | nd | 0/9
K24G/S26W/V39H | 3.36 nd nd | 3.36 | 3/9 (3.93)
S26D/A57G/S103I | 0.54 0.83 0.76 | 0.71 | 2/9 (5.05)
S25I/T59I/R60A | 0.56 1.20 1.06 | 0.94 | 0/9
E61S/Y97V/R99I | 2.23 2.10 2.28 | 2.20 | 7/9 (5.02)
R34A/K36W/P101I | nd nd 3.18 | 3.18 | 0/9
V29N/V39I/A57V | 0.72 0.76 0.44 | 0.64 | 1/9 (4.45)
V29G/S62Q/R99E | nd nd nd | nd | 0/9
N37L/H98W | 1.80 1.56 1.98 | 1.78 | 2/9 (4.43)

From the list, the first 9 with no signal in any replicate:

| changes | log10 Kd, replicates | mean, log10 nM | control signals |
|---|---|---|---|
| K24E/R99T/L102A | nd nd nd | nd | 2/9 (3.43) |
| K24E/R99P | nd nd nd | nd | 3/9 (3.62) |
| N35G/S38W/E61D | nd nd nd | nd | 1/9 (4.32) |
| S28W/L30W/V39T | nd nd nd | nd | 1/9 (3.12) |
| S38W/S58V/L100T | nd nd nd | nd | 0/9 |
| S25P/Y31R/L102M | nd nd nd | nd | 1/9 (4.06) |
| N37L/A40F/S103Q | nd nd nd | nd | 2/9 (3.08) |
| S62Y/P101W/S103K | nd nd nd | nd | 1/9 (4.17) |
| S28Y/S33G/A57I | nd nd nd | nd | 1/9 (3.73) |

In this assay the parent's reference entry averaged 0.65; its copy inside this library read 1.68.